Measurements taken from patent publication US6703417B2, “Aqueous-prodrug compound comprising moiety of paclitaxel or derivatives thereof, method of preparing same and pharmaceutical composition comprising same” (Kolon Industries, Inc., priority 2000, dated 2004).

Conditions: in 1 ml of distilled water; amount at which fluidity occurs and haze is 0.5 or less

Question: With “7-monomethoxypolyethyleneglycol 5000-succinylthiomethyloxy carbonyl-paclitaxel) [Example 12]” as the substance, how does the Amount of dissolving read?
Answer: 400 mg or more

Question: With “7-monomethoxypolyethyleneglycol 20000-succinyloxymethyloxycarbonyl-paclitaxel [Example 10]” as the substance, how does the Amount of dissolving read?
Answer: 400 mg or more

Question: Which Amount of dissolving does the source give for “2′-monomethoxypolyethyleneglycol 20000-succinyloxymethyloxycarbonyl-paclitaxel [Example 8]” here?
Answer: 400 mg or more

Question: Which Amount of dissolving does the source give for “7-polyethyleneglycol 20000-di(succinyloxymethyloxycarbonyl-paclitaxel [Example 11]” here?
Answer: 400 mg or more

Question: For “2′-monomethoxypolyethyleneglycol 5000-succinyloxymethyloxycarbonyl-paclitaxel [Example 2]”, which Amount of dissolving is on record?
Answer: 400 mg or more

Question: With “2′-polyethyleneglycol 20000-di(succinyloxymethyloxycarbonyl-paclitaxel) [Example 9]” as the substance, how does the Amount of dissolving read?
Answer: 400 mg or more

Question: Which Amount of dissolving does the source give for “7-polyethyleneglycol 6000-di(succinyloxymethyloxycarbonyl-paclitaxel) [Example 7]” here?
Answer: 400 mg or more

Question: For “7-mPEG 5000-succinyloxymethyloxycarbonyl-paclitaxel [Example 6]”, which Amount of dissolving is on record?
Answer: 400 mg or more
